Results from patent US20110136776A1, “Copper(1)Chloride Complex of Nicotinic Acid and Pharmaceutical Compositions Containing the Same” (priority 2008, published 2011).

Key:
[1] = when well dried and protected from light

- Solubility in DMF and DMSO (DMF and DMSO): Soluble
- Solubility in non polar solvents (non polar solvents, e.g. benzene, carbon tetrachloride): insoluble
- Solubility in polar solvents (polar solvents: water, methanol, ethanol, acetone): insoluble
- Stability [1]: sufficiently stable
Substance: [CuCl (Nicotinic acid)2 H20]complex [The complex]
- Solubility in these solvents upon heating (upon heating in inert atmosphere, otherwise oxidation takes place): soluble in these solvents upon heating in inert atmosphere
